# Data taken from article PMC8103790 (Biochemistry, 2019).
# By UniProt entry, the sequences of proteins in these tests, tags left out. Residues count along the entry.
# UniProt Q05769, 18-604 V335I/N580A: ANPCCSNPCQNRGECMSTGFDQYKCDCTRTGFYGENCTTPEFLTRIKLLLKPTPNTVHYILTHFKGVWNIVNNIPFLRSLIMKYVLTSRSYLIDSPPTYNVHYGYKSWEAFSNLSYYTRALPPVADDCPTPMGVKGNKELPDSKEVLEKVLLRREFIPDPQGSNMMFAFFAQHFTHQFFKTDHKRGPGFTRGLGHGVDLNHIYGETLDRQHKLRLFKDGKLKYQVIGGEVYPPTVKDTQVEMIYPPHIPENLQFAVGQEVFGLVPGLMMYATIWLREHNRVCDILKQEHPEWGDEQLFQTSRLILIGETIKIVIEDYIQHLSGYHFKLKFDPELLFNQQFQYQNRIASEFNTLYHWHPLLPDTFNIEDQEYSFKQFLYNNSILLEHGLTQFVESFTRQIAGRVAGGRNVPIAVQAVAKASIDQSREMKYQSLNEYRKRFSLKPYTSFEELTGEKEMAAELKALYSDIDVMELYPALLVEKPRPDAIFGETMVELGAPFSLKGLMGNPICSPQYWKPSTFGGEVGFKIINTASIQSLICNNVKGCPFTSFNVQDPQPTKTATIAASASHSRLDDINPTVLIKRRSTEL
# Molecular target: V349I murine COX-2 (muCOX-2) (Mus musculus, UniProt Q05769, V335I/N580A)
compound,measurement,value
"CCCCC/C=C\C/C=C\C/C=C\C/C=C\CCCC(=O)O [AA, 5Z, 8Z, 11Z, 14Z-eicosatetraenoic acid]","X-ray crystal structure, 2.2 Å",Clear electron density was observed for AA bound within the cyclooxygenase channel of each monomer of the V349I:AA crystal structure.
